## Membrane permeability of cyclic peptides

Collected by the curators of CycPeptMPDB (Li et al. 2023) from Townsend et al. 2020, doi:10.26434/chemrxiv.13335941.v1.

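The data file gives no further conditions (lipid, pH, time, direction or concentration), and values from different papers need not be comparable. The list need not hold all peptides of the study. Entries at the database's floor value (log10 P of -10) are not listed.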

PAMPA measures passive passage through an artificial lipid membrane.
P is given in units of 10^-6 cm/s (from log10 values with two decimals); larger means faster passage.

Listed for CCCN1CC(=O)N[C@H](CC(C)C)C(=O)N[C@@H](Cc2ccccc2)CC(=O)N2CCC[C@@H]2C(=O)N(C)[C@H](CC(C)C)C(=O)N[C@@H](Cc2ccccc2)C(=O)N2CCC[C@H]2C1=O: PAMPA 1.5 × 10^-6 cm/s. CC(C)C[C@@H]1C(=O)N[C@@H](Cc2ccccc2)C(=O)N2CCC[C@H]2C(=O)N(C)[C@H](C)C(=O)N(Cc2ccccc2)CC(=O)N(C)[C@@H](CC(C)C)C(=O)N2CCC[C@@H]2C(=O)N1C has PAMPA 3.7 × 10^-6 cm/s. Listed for CC(C)C[C@@H]1NC(=O)C[C@H](Cc2ccccc2)NC(=O)[C@@H]2CCCN2C(=O)[C@H](Cc2ccccc2)NC(=O)[C@@H](CC(C)C)NC(=O)[C@@H]2CCCN2C(=O)CN(Cc2ccccc2)C1=O: PAMPA 2.1 × 10^-6 cm/s. The entry for CC(C)C[C@@H]1C(=O)N(C)[C@@H](CC(C)C)C(=O)N2CCC[C@H]2C(=O)N(C)[C@@H](CC(C)C)C(=O)N[C@@H](Cc2ccccc2)C(=O)N[C@H](C)C(=O)N1C lists PAMPA 5.4 × 10^-6 cm/s. CCCN1CC(=O)N[C@@H](CC(C)C)C(=O)N[C@H](CC(C)C)C(=O)N2CCC[C@H]2C(=O)N[C@H](CC(C)C)C(=O)N[C@@H](Cc2ccccc2)C(=O)N2CCC[C@@H]2C1=O is reported with PAMPA 0.62 × 10^-6 cm/s. CC(C)C[C@@H]1NC(=O)[C@@H](C)NC(=O)[C@@H]2CCCN2C(=O)[C@H](Cc2ccccc2)NC(=O)[C@H](CC(C)C)N(C)C(=O)[C@@H]2CCCN2C(=O)[C@@H](CC(C)C)N(C)C1=O is reported with PAMPA 1 × 10^-6 cm/s. CC(C)C[C@@H]1C(=O)N[C@@H](Cc2ccccc2)C(=O)N2CCC[C@@H]2C(=O)N[C@@H](Cc2ccccc2)CC(=O)N(C)[C@@H](CC(C)C)C(=O)N[C@H](CC(C)C)C(=O)N2CCC[C@H]2C(=O)N1C has PAMPA 4.8 × 10^-6 cm/s.

CC(C)C[C@@H]1NC(=O)[C@H]2CCCN2C(=O)[C@@H](CC(C)C)NC(=O)[C@@H](CC(C)C)N(C)C(=O)C[C@H](Cc2ccccc2)NC(=O)[C@@H]2CCCN2C(=O)[C@H](Cc2ccccc2)NC1=O has PAMPA 2.7 × 10^-6 cm/s. CCCN1CC(=O)N(C)[C@@H](CC(C)C)C(=O)N[C@@H](Cc2ccccc2)CC(=O)N2CCC[C@H]2C(=O)N(C)[C@@H](CC(C)C)C(=O)N[C@@H](Cc2ccccc2)C(=O)N2CCC[C@H]2C1=O has PAMPA 6.3 × 10^-6 cm/s. Listed for CCCN1CC(=O)N(C)[C@H](CC(C)C)C(=O)N[C@H](CC(C)C)C(=O)N2CCC[C@@H]2C(=O)N(C)[C@H](CC(C)C)C(=O)N[C@@H](Cc2ccccc2)C(=O)N2CCC[C@H]2C1=O: PAMPA 6 × 10^-6 cm/s. CC(C)C[C@@H]1NC(=O)[C@H](C)N(C)C(=O)[C@H]2CCCN2C(=O)[C@H](Cc2ccccc2)NC(=O)[C@@H](CC(C)C)N(C)C(=O)[C@H]2CCCN2C(=O)[C@H](CC(C)C)N(C)C1=O has PAMPA 5.4 × 10^-6 cm/s. CC(C)C[C@@H]1NC(=O)[C@H](CC(C)C)N(C)C(=O)[C@@H](C)N(C)C(=O)[C@H](Cc2ccccc2)NC(=O)[C@@H](CC(C)C)NC(=O)[C@@H]2CCCN2C1=O has PAMPA 7.4 × 10^-6 cm/s. CC(C)C[C@@H]1NC(=O)[C@H](C)N(C)C(=O)[C@H]2CCCN2C(=O)[C@H](Cc2ccccc2)NC(=O)CN(Cc2ccccc2)C(=O)[C@@H]2CCCN2C(=O)[C@H](CC(C)C)NC1=O has PAMPA 1.7 × 10^-6 cm/s. CC(C)C[C@@H]1NC(=O)[C@@H](C)NC(=O)[C@H](Cc2ccccc2)NC(=O)CN(Cc2ccccc2)C(=O)[C@@H]2CCCN2C(=O)[C@@H](CC(C)C)N(C)C1=O is reported with PAMPA 1.7 × 10^-6 cm/s.

CC(C)C[C@@H]1C(=O)N[C@H](CC(C)C)C(=O)N2CCC[C@H]2C(=O)N[C@H](CC(C)C)C(=O)N[C@@H](Cc2ccccc2)C(=O)N[C@H](C)C(=O)N1C has PAMPA 1.3 × 10^-6 cm/s. For CC(C)C[C@@H]1NC(=O)C[C@H](Cc2ccccc2)NC(=O)[C@@H]2CCCN2C(=O)[C@H](Cc2ccccc2)NC(=O)[C@H](CC(C)C)N(C)C(=O)[C@@H]2CCCN2C(=O)CN(Cc2ccccc2)C1=O the data give PAMPA 2.3 × 10^-6 cm/s. Listed for CC(C)C[C@@H]1C(=O)N(Cc2ccccc2)CC(=O)N2CCC[C@@H]2C(=O)N(C)[C@@H](CC(C)C)C(=O)N[C@@H](Cc2ccccc2)C(=O)N2CCC[C@@H]2C(=O)N[C@@H](Cc2ccccc2)CC(=O)N1C: PAMPA 3.6 × 10^-6 cm/s. For CC(C)C[C@@H]1C(=O)N[C@@H](Cc2ccccc2)C(=O)N2CCC[C@@H]2C(=O)N[C@@H](C)C(=O)N[C@H](CC(C)C)C(=O)N(Cc2ccccc2)CC(=O)N2CCC[C@@H]2C(=O)N1C the data give PAMPA 2.4 × 10^-6 cm/s. For CC(C)C[C@@H]1C(=O)N(Cc2ccccc2)CC(=O)N2CCC[C@@H]2C(=O)N(C)[C@H](CC(C)C)C(=O)N[C@@H](Cc2ccccc2)C(=O)N2CCC[C@@H]2C(=O)N(C)[C@H](C)C(=O)N1C the data give PAMPA 0.55 × 10^-6 cm/s. The entry for CCCN1CC(=O)N(C)[C@H](CC(C)C)C(=O)N[C@H](CC(C)C)C(=O)N2CCC[C@@H]2C(=O)N(C)[C@H](CC(C)C)C(=O)N[C@@H](Cc2ccccc2)C1=O lists PAMPA 7.9 × 10^-6 cm/s. Listed for CC(C)C[C@@H]1C(=O)N(Cc2ccccc2)CC(=O)N2CCC[C@H]2C(=O)N(C)[C@@H](CC(C)C)C(=O)N[C@@H](Cc2ccccc2)C(=O)N2CCC[C@@H]2C(=O)N(C)[C@H](C)C(=O)N1C: PAMPA 3.8 × 10^-6 cm/s.

Listed for CCCN1CC(=O)N(C)[C@H](CC(C)C)C(=O)N[C@@H](CC(C)C)C(=O)N2CCC[C@@H]2C(=O)N(Cc2ccccc2)CC(=O)N[C@@H](Cc2ccccc2)C(=O)N2CCC[C@H]2C1=O: PAMPA 5.1 × 10^-6 cm/s. CC(C)C[C@@H]1NC(=O)[C@H]2CCCN2C(=O)[C@H](CC(C)C)N(C)C(=O)[C@@H](CC(C)C)N(C)C(=O)[C@H](C)NC(=O)[C@@H]2CCCN2C(=O)[C@H](Cc2ccccc2)NC1=O is reported with PAMPA 1.4 × 10^-6 cm/s. The entry for CC(C)C[C@@H]1NC(=O)[C@H](CC(C)C)N(C)C(=O)C[C@H](Cc2ccccc2)NC(=O)[C@@H]2CCCN2C(=O)[C@H](Cc2ccccc2)NC(=O)[C@H](CC(C)C)N(C)C(=O)[C@@H]2CCCN2C1=O lists PAMPA 1.8 × 10^-6 cm/s.

4 of these entries, quoted again:

SMILES	PAMPA (10^-6 cm/s)
CC(C)C[C@@H]1NC(=O)[C@H](C)N(C)C(=O)[C@H]2CCCN2C(=O)[C@H](Cc2ccccc2)NC(=O)[C@@H](CC(C)C)N(C)C(=O)[C@H]2CCCN2C(=O)[C@H](CC(C)C)N(C)C1=O	5.4
CCCN1CC(=O)N[C@H](CC(C)C)C(=O)N[C@@H](Cc2ccccc2)CC(=O)N2CCC[C@@H]2C(=O)N(C)[C@H](CC(C)C)C(=O)N[C@@H](Cc2ccccc2)C(=O)N2CCC[C@H]2C1=O	1.5
CCCN1CC(=O)N(C)[C@H](CC(C)C)C(=O)N[C@H](CC(C)C)C(=O)N2CCC[C@@H]2C(=O)N(C)[C@H](CC(C)C)C(=O)N[C@@H](Cc2ccccc2)C1=O	7.9
CCCN1CC(=O)N[C@@H](CC(C)C)C(=O)N[C@H](CC(C)C)C(=O)N2CCC[C@H]2C(=O)N[C@H](CC(C)C)C(=O)N[C@@H](Cc2ccccc2)C(=O)N2CCC[C@@H]2C1=O	0.62